Test results reported in PubChem BioAssay AID588342 (National Center for Advancing Translational Sciences (NCATS), 2011).
The entries are a selection whose mix differs from that of the whole data set. Records with an inconclusive call do not appear. Activity calls are given as the source filed them. Calls come from the whole dose curve; as a rule, active = well fitted inhibition curve with a large enough effect; inconclusive = small, poorly fitted or top-dose-only effect; inactive = flat fitted curve, though single readings scatter.

By UniProt entry, the sequences of proteins in these tests, tags left out.
UniProt P08659, whole entry: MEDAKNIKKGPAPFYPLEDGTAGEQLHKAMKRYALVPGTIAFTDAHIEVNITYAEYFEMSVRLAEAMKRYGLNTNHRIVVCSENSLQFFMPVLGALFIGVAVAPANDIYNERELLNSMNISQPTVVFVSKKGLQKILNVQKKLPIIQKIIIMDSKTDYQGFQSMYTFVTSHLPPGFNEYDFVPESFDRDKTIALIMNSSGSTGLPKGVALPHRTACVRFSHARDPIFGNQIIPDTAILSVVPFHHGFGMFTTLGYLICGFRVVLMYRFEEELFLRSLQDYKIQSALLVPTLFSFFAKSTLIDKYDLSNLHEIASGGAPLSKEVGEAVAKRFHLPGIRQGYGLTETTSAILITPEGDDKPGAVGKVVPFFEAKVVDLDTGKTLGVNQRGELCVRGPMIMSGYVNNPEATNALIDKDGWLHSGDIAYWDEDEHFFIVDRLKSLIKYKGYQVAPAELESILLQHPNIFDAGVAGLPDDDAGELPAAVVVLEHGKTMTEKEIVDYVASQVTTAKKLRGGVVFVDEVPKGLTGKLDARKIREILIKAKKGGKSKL

What follows are molecules tested against Luciferin 4-monooxygenase (Photinus pyralis) (UniProt P08659) (assay: qHTS profiling assay for firefly luciferase inhibitor/activator using purifed enzyme and Km concentrations of substrates (counterscreen for miR-21 project)). Conditions: purified FLuc, luminescence inhibition; at 57.5 µM (top of the series).
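Note: plate controls were vehicle for no effect and reference inhibitor for full effect; nearly all actives have a fitted effect of over 55% in size.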

| Compound | activity change, negative = inhibition |
| --- | --- |
| CCN1CCC(Nc2cccc(F)c2)CC1 | inactive: -1.83% |
| Cc1ccccc1C(=O)NCC1(N(C)C)CCCCC1 | inactive: 2.8% |
| CN(C)c1ccc(C(=O)NCC2(N3CCCCC3)CCCCC2)cc1 | inactive: -1.9% |
| O=C(NCC1(N2CCCCC2)CCCCC1)c1ccco1 | inactive: 2.49% |
| CC(C)(C)c1ccc(C(=O)NCC2(N3CCOCC3)CCCCC2)cc1 | inactive: 0.828% |
| CN(C)C1(CNC(=O)c2ccc(C(C)(C)C)cc2)CCCCC1 | inactive: -0.577% |
| COc1cc(OC)cc(C(=O)NCC2(N3CCCCC3)CCCCC2)c1 | inactive: 2.12% |
| Fc1ccccc1NC1CCN(Cc2ccccc2)CC1 | inactive: -2.16% |
| Cc1ccc(C(=O)NCC2(N3CCCCC3)CCCCC2)o1 | inactive: 2.45% |
| COc1cc(OC)cc(C(=O)NCC2(N3CCOCC3)CCCCC2)c1 | inactive: 0.339% |
| COc1cc(C(=O)NCC2(N3CCOCC3)CCCCC2)cc(OC)c1OC | inactive: 5.97% |
| COc1cccc(C(=O)N(c2cc(C)cc(C)c2)C2CCN(C(=O)OC(C)(C)C)CC2)c1 | inactive: 1.32% |
| CCC(CO)(C(=O)OC1CN2CCC1CC2)c1ccccc1 (centres undefined) | inactive: 7.52% |
| CN1CCC(Nc2ccc(Cl)cc2)CC1 | inactive: -0.0521% |
| CCCOc1ccc(C)cc1CN(CCCl)CCCl | inactive: 0.35% |
| CN1CCC(Nc2ccc(F)c(Cl)c2)CC1 | inactive: -0.0726% |
| CCOc1ncccc1C(=O)NCC1(N2CCOCC2)CCCCC1 | inactive: 4.74% |
| O=C(O)C1(Nc2ccccc2)CCN(Cc2ccccc2)CC1 | inactive: -0.0162% |
| CC(C)(C)OC(=O)N1CCC(Nc2ccccc2)CC1 | inactive: 0.217% |
| CCCOc1ccc(C(=O)NCC2(N(C)C)CCCCC2)cc1 | inactive: -2.11% |
| CCOC(=O)N1CCC(Nc2ccc(C)cc2)CC1 | inactive: -1.49% |
| N/C(=N\O)c1c(N)no[n+]1[O-] | inactive: 2.7% |
| O=C(O)c1cccc(Nc2c([N+](=O)[O-])cc([N+](=O)[O-])cc2[N+](=O)[O-])c1 | inactive: -3.26% |
| CCc1cc(C(=O)NCC2(N3CCCCC3)CCCCC2)sc1C | inactive: -1.43% |
| O=C(OC1CN2CCC1CC2)C1c2ccccc2C=Cc2ccccc21 (centres undefined) | inactive: 0.221% |
| O=C(NCC1(N2CCOCC2)CCCCC1)c1cc(Br)ccc1Cl | inactive: 3.63% |
| COc1ccc(C(=O)NCC2(N3CCOCC3)CCCCC2)cc1OC | inactive: 0.137% |
| CN(C)C1(CNC(=O)c2cccc(C#N)c2)CCCCC1 | inactive: 0.0355% |
| O=C(NCC1(N2CCOCC2)CCCCC1)c1ccccc1 | inactive: -2.67% |
